deltaH and deltaG data for 1 molecule are collected here from ChEMBL document CHEMBL5257130, “Methyl and Fluorine Effects in Novel Orally Bioavailable Keap1-Nrf2 PPI Inhibitor” (ACS Med Chem Lett, 2023).

Chains of the proteins cited; added tags and fusions are not shown.
UniProt Q14145, whole entry: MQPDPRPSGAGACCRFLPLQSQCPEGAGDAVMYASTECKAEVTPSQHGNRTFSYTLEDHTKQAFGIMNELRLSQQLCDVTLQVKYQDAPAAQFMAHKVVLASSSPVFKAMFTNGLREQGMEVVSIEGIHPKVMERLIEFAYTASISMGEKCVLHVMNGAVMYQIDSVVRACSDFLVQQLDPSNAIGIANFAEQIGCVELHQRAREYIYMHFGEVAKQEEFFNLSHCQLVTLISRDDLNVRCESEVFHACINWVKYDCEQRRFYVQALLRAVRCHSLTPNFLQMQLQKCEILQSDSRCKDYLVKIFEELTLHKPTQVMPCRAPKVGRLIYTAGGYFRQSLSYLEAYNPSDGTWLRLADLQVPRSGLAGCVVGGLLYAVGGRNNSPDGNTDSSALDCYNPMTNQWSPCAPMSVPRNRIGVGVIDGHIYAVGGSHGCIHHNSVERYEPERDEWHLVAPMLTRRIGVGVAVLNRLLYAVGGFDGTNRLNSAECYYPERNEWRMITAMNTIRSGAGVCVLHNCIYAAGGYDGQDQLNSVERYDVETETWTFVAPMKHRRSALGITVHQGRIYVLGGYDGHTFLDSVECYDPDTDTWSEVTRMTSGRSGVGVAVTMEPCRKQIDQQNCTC

The target of experiment [1] is Kelch-like ECH-associated protein 1 (Homo sapiens) (UniProt Q14145).
Experiment [2] has the same target. This is another data set of the same source.

Each structure is given as a SMILES string.

Take `Cc1ccc([C@@H](NC(=O)[C@@H](F)c2ccc3c(c2)CCCC3)[C@@H](C)C(=O)O)cc1`: the deltaH in experiment [1] is -8.2 kcal/mol. The deltaG in experiment [2] is -9.4 kcal/mol.
